Values of other authors in article PMC9966187.

Columns and labels:
[1] = molecular target: dodecapeptide …

Q: Which Kd (octavalent YRYPY peptide) does the source give for concanavalin A (from UniProt P02866) here?
A: 0.001 µM

Q: And the Kd [1]?
A: 46 µM

Q: And the Kd (hexapeptide MYWYPY)?
A: 800 µM
